Results from patent US8022180B2, “Method for preventing and treating Alzheimer's disease” (Affiris Forschungs-und Entwicklungs GmbH, priority 2004, dated 2011).

Test system: monoclonal antibody specific for the natural N-terminal Aβ42 sequence DAEFRH
Assay: Inhibition assay: mimotope peptides compete with plate-bound DAEFRH-BSA for recognition by the biotinylated monoclonal antibody (ELISA)
Format: binding, mice
Description: 1.: Generation of Monoclonal Antibodies (mAb) to Detect Aβ42-Derived Peptide Species with Free N-Terminus (Free Aspartic Acid at the N-Terminus)
Mice are vaccinated with the 6mer peptide DAEFRH (SEQ ID NO: 26) (natural N-terminal Aβ42 sequence) linked to the protein bovine serum albumin BSA (to make use of the hapten-carrier-effect), emulsified in CFA (first injection) and IFA (booster injections). DAEFRH (SEQ ID NO: 26)-peptide-specific, antibody-producing hybridomas are detected by ELISA (DAEFRH (SEQ ID NO: 26)-peptide-coated ELISA plates).
FIGS. 2 and 3 describe the results of inhibition assays performed with mimotope peptides included in and obtained from the 5 libraries (as described). The mimotope peptides compete with the original epitope for recognition by the monoclonal antibody. Original epitope and mimotope peptides contain an additional C at the C-terminus for coupling to a protein carrier (if desired).
After blocking with PBS/BSA 1% (200 μl/well, 12 h, 4° C.), the plates are washed 3× times with PBS/Tween. Then, biotinylated monoclonal antibody (1:2000, 50 μl/well) and peptides (50 μl/well) at 50, 5, 0.5, 0.05, 0.005, and 0.0005 μg/ml are added for 20 min. at 37° C. The plates are washed 3× times with PBS/Tween and are incubated with horseradish peroxidase (HRP)-labeled streptavidin (100 μl/well, 30 min, RT). […]

SMILES: CC(C)C[C@H](NC(=O)[C@H](CCC(=O)O)NC(=O)[C@H](CCCCN)NC(=O)[C@@H](N)CC(=O)O)C(=O)N[C@@H](CCCNC(=N)N)C(=O)N[C@@H](CS)C(=O)O [Peptide 1238, DKELR]
- inhibition of epitope recognition by the monoclonal antibody (in words) (FIGS. 2-9): block epitope recognition
- Inhibitory capacity of mimotopes (summary Tables 1 and 2, in words): strong
